Molecules are shown by their SMILES.

Sequences of proteins named here, by UniProt entry; tags and fusion partners are left off.
UniProt P21554, whole entry: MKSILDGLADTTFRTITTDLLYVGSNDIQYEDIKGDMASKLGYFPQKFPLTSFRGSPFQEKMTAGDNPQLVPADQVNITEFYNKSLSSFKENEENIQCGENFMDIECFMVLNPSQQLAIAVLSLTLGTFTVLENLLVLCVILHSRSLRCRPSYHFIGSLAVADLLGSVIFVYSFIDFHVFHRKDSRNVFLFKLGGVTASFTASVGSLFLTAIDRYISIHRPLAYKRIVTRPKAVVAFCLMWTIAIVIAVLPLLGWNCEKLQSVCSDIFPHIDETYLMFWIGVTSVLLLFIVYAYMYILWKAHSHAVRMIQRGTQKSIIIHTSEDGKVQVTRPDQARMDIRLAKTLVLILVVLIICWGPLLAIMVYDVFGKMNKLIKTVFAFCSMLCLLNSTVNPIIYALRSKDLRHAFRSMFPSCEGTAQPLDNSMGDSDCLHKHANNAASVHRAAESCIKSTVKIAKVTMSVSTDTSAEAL

The assay addresses T1, human CB1 receptor (Homo sapiens, UniProt P21554).
T1 construct: host or cells: CHO-RD-HGA16 cells (CHO cells overexpressing promiscuous Galpha16)
Kind of assay: CB1 calcium mobilization assay (antagonist mode, against EC80 of CP55,940). In kind it is cell-based. As to conditions: Table 1; against EC80 (100 nM) of CP55,940; mean ± S.E.M. On the technique in general: A change in cytosolic calcium serves as a functional read-out for many receptors and channels.
Usually IC50 stands for the concentration at which inhibition is half-maximal. Turning to `Cc1cccc(-c2cccc(NC(=O)Nc3ccc(Cl)cc3)c2)c1` [Compound 27, 3-(4-Chlorophenyl)-1-[3-(3-methylphenyl)phenyl]urea], the IC50 came out at 74 ± 6 nM.

`O=C(Nc1ccc(Cl)cc1)Nc1cccc(-c2ccc3ccccc3c2)c1` [Compound 42, 3-(4-Chlorophenyl)-1-[3-(naphthalen-2-yl)phenyl]urea]: the IC50 was found to be 132 ± 28 nM.

Regarding `O=C(Nc1ccc(Cl)cc1)Nc1cccc(-c2ccc(C(=O)c3ccccc3)cc2)c1` [Compound 40, 3-(4-Chlorophenyl)-1-[3-(4-benzoylphenyl)phenyl]urea], the IC50 amounted to 1570 ± 60 nM.

As to `Cc1ccnc(-c2cccc(NC(=O)Nc3ccc(Cl)cc3)c2)c1` [Compound 16, 3-(4-Chlorophenyl)-1-[3-(4-methylpyridin-2-yl)phenyl]urea], the IC50 was 1310 ± 80 nM.

Turning to `O=C(Nc1ccc(Cl)cc1)Nc1cccc(-c2ccc3ccccc3n2)c1` [Compound 43, 3-(4-Chlorophenyl)-1-[3-(quinolin-2-yl)phenyl]urea], the IC50 stood at 334 ± 80 nM.

The values are drawn from patent US11084781B2, “Diarylureas as CB1 allosteric modulators” (Research Triangle Institute, priority 2017, dated 2021).
